The assay addresses low-density lipoprotein receptor-related protein 1 (LRP1) (human (endogenous in iPSC-derived neurons)) (UniProt Q07954).

Regarding “lysine-capped α-synuclein (from UniProt P37840 1-140) (natural protein)”, the uptake of lysine-capped α-Syn into WT iPSNs by flow cytometry, reduction against uncapped α-Syn was 50 % reduction.

Source of the values: publication PMC9438229.
